Tested on: human mesenchymal stem cells (hMSCs)
Experiment: Osteogenic marker gene expression (RT-qPCR) of hMSCs on BMP2 functionalized PIPA scaffolds
Type: cell-based
Details: preliminary
Description: 12 PIPA scaffolds (ø=4 mm, h=2 mm) were placed in vials containing 500 μl of 10% BSA in PBS supplemented with either 20 or 100 ng/ml BMP2. After vortexing the vials were centrifuged at 200 g for 10 min. The PIPA scaffolds were placed in petri dishes and vacuum dried for 2 hours (hr) at room temperature before stored at 4° C. overnight.
40000 hMSCs were seeded pr scaffold in DMEM high glucose supplemented with 10% FBS, 100 nM dexamethasone, 10 mM β-glycerophosphate, 50 μM L-ascorbic acid-2 phosphate, and 10^−8 M vitamin D and cultured for up to 14 days at 37° C., in a humidified atmosphere of 5% CO2. Media were changed twice a week.
Gene expression of osteogenic markers were analyzed after 2 hr, 6 hr, 2, 7, and 14 days using RT-qPCR

B1: BMP2: BMP2 at 20 or 100 ng/ml dip coated onto PIPA scaffolds (protein, UniProt P12643 283-396, looked up)
Bone morphogenetic protein 2: QAKHKQRKRLKSSCKRHPLYVDFSDVGWNDWIVAPPGYHAFYCHGECPFPLADHLNSTNHAIVQTLVNSVNSKIPKACCVPTELSAISMLYLDENEKVVLKNYQDMVVEGCGCR
osteocalcin (OC) gene expression (20 ng/ml BMP2, after 14 days): seems to stimulate
runx2 gene expression (20 ng/ml BMP2, after two hours): seem to stimulate
alkaline phosphatase (ALP) gene expression (100 ng/ml BMP2, after two days): seems to stimulate
runx2 gene expression (100 ng/ml BMP2, after two hours): seem to stimulate

Reference: patent publication US20140350680A1, “PROCESS FOR MODIFYING THE SURFACE MORPHOLOGY OF A MEDICAL DEVICE” (priority 2011, published 2014)
